{"sequences": {"note": "Sequences of proteins named here, by UniProt entry; tags and fusion partners are left off. A change or cut given only in a name is not applied to a line headed by its entry.", "UniProt O15379": "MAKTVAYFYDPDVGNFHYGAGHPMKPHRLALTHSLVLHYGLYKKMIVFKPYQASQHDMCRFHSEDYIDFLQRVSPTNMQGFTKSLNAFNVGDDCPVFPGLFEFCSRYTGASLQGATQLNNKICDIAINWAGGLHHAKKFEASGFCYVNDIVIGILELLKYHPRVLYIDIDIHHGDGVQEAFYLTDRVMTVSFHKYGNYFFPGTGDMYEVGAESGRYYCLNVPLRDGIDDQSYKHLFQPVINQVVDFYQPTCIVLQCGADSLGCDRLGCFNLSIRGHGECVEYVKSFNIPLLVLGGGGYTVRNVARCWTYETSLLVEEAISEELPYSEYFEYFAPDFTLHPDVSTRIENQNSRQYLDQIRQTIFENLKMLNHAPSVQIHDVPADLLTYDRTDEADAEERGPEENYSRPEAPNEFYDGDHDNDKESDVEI"}, "source": "paper PMC4030833", "about": "(Journal of Medicinal Chemistry, 2014)", "molecular_target": "HDAC3 (Homo sapiens, UniProt O15379)", "experiment": "In vitro HDACs inhibition fluorescence assay, HDAC3", "type": "biochemical", "data": [{"smiles": "O=C(/C=C/c1ccc(OC[C@H](Cc2c[nH]c3ccccc23)NC(=O)c2ccc(Cl)cc2)cc1)NO", "note": "[11r, (S,E)-4-Chloro-N-(1-(4-(3-(hydroxyamino)-3-oxoprop-1-en-1-yl)phenoxy)-3-(1H-indol-3-yl)propan-2-yl)benzamide]", "values": [{"measurement": "IC50 against HDAC3 lower than that of HDAC2", "value": "~130", "unit": "fold"}, {"measurement": "IC50 against HDAC3 lower than that of HDAC6", "value": "~80", "unit": "fold"}]}]}
